Sequences of proteins named here, by UniProt entry; tags and fusion partners are left off. A change or cut given only in a name is not applied to a line headed by its entry.
UniProt P29477: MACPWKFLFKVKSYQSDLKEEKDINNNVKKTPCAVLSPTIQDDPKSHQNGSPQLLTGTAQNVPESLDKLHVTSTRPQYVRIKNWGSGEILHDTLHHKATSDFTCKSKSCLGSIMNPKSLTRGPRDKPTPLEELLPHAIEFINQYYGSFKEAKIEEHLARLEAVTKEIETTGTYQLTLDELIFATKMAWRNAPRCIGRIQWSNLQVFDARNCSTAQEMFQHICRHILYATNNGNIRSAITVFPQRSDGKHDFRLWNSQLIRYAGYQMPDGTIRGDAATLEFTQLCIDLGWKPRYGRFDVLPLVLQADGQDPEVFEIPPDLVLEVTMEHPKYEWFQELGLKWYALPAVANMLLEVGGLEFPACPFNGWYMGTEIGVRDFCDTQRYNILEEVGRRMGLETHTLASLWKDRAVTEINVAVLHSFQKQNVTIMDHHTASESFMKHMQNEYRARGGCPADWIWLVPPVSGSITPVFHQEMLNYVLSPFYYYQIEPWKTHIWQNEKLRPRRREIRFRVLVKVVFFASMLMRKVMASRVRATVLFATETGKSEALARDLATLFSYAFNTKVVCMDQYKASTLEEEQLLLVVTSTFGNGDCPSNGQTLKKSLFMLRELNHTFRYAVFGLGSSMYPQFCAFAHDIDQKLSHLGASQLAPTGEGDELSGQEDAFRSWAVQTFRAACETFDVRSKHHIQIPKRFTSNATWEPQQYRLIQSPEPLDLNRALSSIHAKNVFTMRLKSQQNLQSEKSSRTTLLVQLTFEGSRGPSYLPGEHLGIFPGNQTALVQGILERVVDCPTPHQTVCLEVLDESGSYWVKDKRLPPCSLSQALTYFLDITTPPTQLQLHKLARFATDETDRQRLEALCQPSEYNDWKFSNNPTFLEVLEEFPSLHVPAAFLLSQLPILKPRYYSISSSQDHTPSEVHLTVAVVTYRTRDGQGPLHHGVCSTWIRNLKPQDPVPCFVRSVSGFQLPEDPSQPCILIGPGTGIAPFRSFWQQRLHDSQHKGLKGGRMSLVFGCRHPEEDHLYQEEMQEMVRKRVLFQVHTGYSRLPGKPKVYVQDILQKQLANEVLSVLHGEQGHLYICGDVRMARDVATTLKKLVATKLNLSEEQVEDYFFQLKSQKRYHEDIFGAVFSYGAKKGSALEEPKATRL

In US20020032325A1, “4-amino-3-mercapto-1,2,4-triazoles” (priority 1999, published 2002):

Molecular target: nitric oxide synthase (Mus musculus, UniProt P29477)
Assay: NOS inhibition assay: nitric oxide (nitrite, Greiss reagent) production from PAM 212 keratinocytes stimulated with gamma interferon
Format: cell-based
Conditions: read-out: IC50, NOS inhibition (nitric oxide production), 100 U/ml gamma interferon, 72 hours, nitrite in medium

Question: For `CC(CCCl)Sc1nnc(-c2cccs2)n1N` (stereo not shown), which IC50 is on record?
Answer: Its IC50 is over 100 µM.
